## scFv variants of Ab-14 (heavy chain) against a SARS-CoV-2 spike peptide

Values reported by Engelhart et al. 2022, doi:10.1038/s41597-022-01779-4 (FLAb copy).

The target is the same throughout: PDVDLGDISGINAS, from the HR2 region of SARS-CoV-2 spike.

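The parent was found by panning a naive human phage display library on the peptide. Variants in AAYL49 differ from the parent at up to three CDR positions; double and triple changes were sampled at random. The scFvs were displayed on barcoded MATa yeast, the peptide on MATalpha yeast. After mating in shaken culture at 30 °C for 16 h, diploids were selected and their barcode pairs sequenced. Scores were corrected for input abundance and mapped to Kd with protein pairs of known affinity run in the same pool. Each pool was mated in three replicate cultures.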

Ab-14 is the parent antibody, in scFv form: VH, then three GGGGS repeats, then VL. The light chain is unchanged in all variants.
VH: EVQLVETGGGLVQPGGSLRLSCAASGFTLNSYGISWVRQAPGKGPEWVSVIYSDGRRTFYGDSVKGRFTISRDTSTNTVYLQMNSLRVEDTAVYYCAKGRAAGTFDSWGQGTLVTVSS
VL: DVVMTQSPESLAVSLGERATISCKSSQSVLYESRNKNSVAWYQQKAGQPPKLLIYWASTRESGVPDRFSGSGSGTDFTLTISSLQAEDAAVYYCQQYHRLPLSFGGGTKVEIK

The parent's heavy chain CDRs are GFTLNSYGIS, VIYSDGRRTFYGDSVK, GRAAGTFDS; each variant's own CDRs replace them letter for letter.
Values are log10 of the apparent Kd in nM; lower means stronger binding.
Where no diploid with the target was found in that replicate, the entry reads "ND": below detection, most likely a poor binder, though not proof of it.

CDR-H1,CDR-H2,CDR-H3,log10 Kd (nM) by replicate,signal with controls
GFTLNSKGIS,VIYADGRRTFYGDSVK,GRAMGTFDS,3.37 / 2.72 / 3.30,5 of 9 (4.17)
GFTLNSYGIS,VIYSIGRWTFYGDSVK,GRIAGTFDS,4.35 / ND / ND,1 of 9 (3.39)
GFTLNSVGIS,VIYSDGRRTFYGDSSK,GRAAGCFDS,3.20 / ND / 3.11,1 of 9 (3.30)
GFTVNSYGIS,VIYSDGRRTFYGDSVM,GRAAGTFTS,3.50 / 2.96 / 3.53,5 of 9 (4.30)
GLTLNSYGIS,VIYSDGRRTFYGVSVK,GRANGTFDS,ND / ND / ND,0 of 9
GFTLNFYGIS,VIYSDGRRTFQGASVK,GRAAGTFDS,4.98 / 3.44 / ND,3 of 9 (4.57)
GFTLNSYGIS,CIYPDGRSTFYGDSVK,GRAAGTFDS,ND / ND / 5.11,1 of 9 (3.73)
GFTLNSYGIS,VIYSVGRWTFYGDSVK,QRAAGTFDS,ND / ND / ND,0 of 9
GFTLNSYGIS,VIYSTGRRTFYGDSVK,KRAAGTIDS,ND / ND / ND,0 of 9
GFTLNSYGIS,VIYSDGRRTFYGDMVK,GRMAGVFDS,1.28 / 1.12 / 1.01,1 of 9 (2.57)
GFALNVKGIS,VIYSDGRRTFYGDSVK,GRAAGTFDS,ND / 4.70 / 4.29,0 of 9
GFTLNSYGIS,VIYADGRRTFYGDSVK,GRAAGGFDC,ND / ND / ND,2 of 9 (3.56)
GFTLWSYGIS,VMYSDGRRTFYGDSVK,GRAHGTFDS,3.89 / 3.43 / 3.14,1 of 9 (3.76)
GFTLNSYGIS,VIYSDGDLTFYGDSVK,GRAAGTFDF,ND / ND / ND,1 of 9 (2.96)
GFTLNIYGIS,VIYADGRRTFYGDSVK,GRAAGTFGS,3.93 / 2.73 / 5.09,2 of 9 (4.64)
GFTLNSYGIS,VIYIDGRRTFYGDSVK,GRAAGKFDW,ND / ND / ND,0 of 9
GFTLNSYQIS,VIYTDGRRTFYGHSVK,GRAAGTFDS,ND / ND / ND,2 of 9 (3.92)
GFTLNSYGIS,VIWFDGRRTFYGDSVK,GRAAETFDS,ND / ND / 4.22,2 of 9 (4.42)
GSGLNSYGIS,VIYSDGRRTFYGDSEK,GRAAGTFDS,ND / 3.24 / ND,0 of 9
GFTLNSYGIS,VIYSQGRRTFMGDSVK,GRAAGTFDP,ND / ND / ND,1 of 9 (2.43)
GFTLNSYGIS,VIYSDGMRTFYGDSPK,GRSAGTFDS,ND / ND / 2.87,0 of 9
CFTLSSYGIS,VIYSGGRRTFYGDSVK,GRAAGTFDS,ND / ND / ND,0 of 9
GFTLNSYWIS,VIYSDGRRTFYGDNVK,LRAAGTFDS,ND / 4.60 / ND,1 of 9 (3.92)
GFTLNSYGIS,VIYSDGRRTFYGDSNK,GVAAGTFDS,ND / 4.66 / 3.50,4 of 9 (4.18)
GFTLNSFGIS,VIYSDGRRKNYGDSVK,GRAAGTFDS,4.05 / 3.81 / ND,4 of 9 (4.45)
GFTLNSYGIS,LIYSDGRRTFYGDSVS,GRACGTFDS,ND / ND / ND,0 of 9
GWTLNSYGIS,VIYSDGRRHFYGDSVK,GRAAGTFDL,ND / 4.00 / ND,2 of 9 (3.79)
GFTLNSYGIS,VIYSDGRRTFYADSVK,GPAAITFDS,ND / ND / ND,0 of 9
GFMLNSIGIS,VIYSDGRYTFYGDSVK,GRAAGTFDS,ND / ND / ND,6 of 9 (3.57)
GFTLNSYGIS,VIYDDGRGTFYGDSVK,GRAEGTFDS,ND / ND / ND,2 of 9 (4.48)
GFTLNSYGIS,VIYSDGRRTFVGDSVK,GRAEGTFDS,2.00 / 2.00 / 2.30,0 of 9
GFTLNSYGIS,TIYSDGRREFNGDSVK,GRAAGTFDS,ND / 3.37 / ND,1 of 9 (3.55)
GFTLNSYGGS,VIYSDGRRTFRGDSVK,GTAAGTFDS,ND / ND / ND,0 of 9
GFTLNSYGIS,VIYVDGRRTFYGDSNK,GRATGTFDS,ND / ND / ND,0 of 9
GFTLNQYGIS,VIYSDRRRTFYGDSVK,GRAAGTFDS,ND / 5.26 / ND,2 of 9 (3.36)
GFRLNSYGIS,VIYSDGRSTMYGDSVK,GRAAGTFDS,ND / ND / ND,0 of 9
GFTLNSYGIS,VIYSDGRRTKSGDSVK,GRAAGTFDW,ND / ND / ND,0 of 9
GFTLNLYGID,VIYSDGRRTFYGDSWK,GRAAGTFDS,ND / ND / ND,0 of 9
GFTLNSYGIS,VIYSDGRRTFYGDSVK,GRAAGTFKS,0.98 / 1.18 / 0.98,0 of 9
GFTLNSYGPS,VISSDGRRTCYGDSVK,GRAAGTFDS,ND / ND / ND,1 of 9 (2.81)
GFTLNSEGIS,VIYSDGRRTFYGVSVR,GRAAGTFDS,3.39 / 3.70 / ND,4 of 9 (4.63)
GFTLNWYGIS,VISSDGRRTFYGDSYK,GRAAGTFDS,ND / 3.34 / ND,0 of 9
GFTLNSYGIS,VIYSDGRCTFMGDSVK,KRAAGTFDS,ND / ND / 5.31,4 of 9 (3.36)
GFTLNSRGIS,VIYSYGRRTFYGDSVK,GRAAGTFMS,ND / ND / ND,0 of 9
NFTLNSYGIS,VIYSDGRRTFYGDSVK,GRAANTFVS,ND / ND / ND,0 of 9
GFTLNSYGIS,VIQSDGRRLFYGDEVK,GRAAGTFDS,ND / ND / ND,0 of 9
GFTLNSYGNS,VIYSDWRRTFYGDSVK,GPAAGTFDS,5.19 / ND / 5.08,9 of 9 (4.77)
GFELNSYGIV,VIYSDGRRTFYGDNVK,GRAAGTFDS,1.85 / 1.97 / 2.02,4 of 9 (3.95)

The 3 strongest on average among those seen in every replicate, once more:

{"CDR-H1": "GFTLNSYGIS", "CDR-H2": "VIYSDGRRTFYGDSVK", "CDR-H3": "GRAAGTFKS", "log10 Kd (nM) by replicate": "0.98 / 1.18 / 0.98", "signal with controls": "0 of 9"}
{"CDR-H1": "GFTLNSYGIS", "CDR-H2": "VIYSDGRRTFYGDMVK", "CDR-H3": "GRMAGVFDS", "log10 Kd (nM) by replicate": "1.28 / 1.12 / 1.01", "signal with controls": "1 of 9 (2.57)"}
{"CDR-H1": "GFELNSYGIV", "CDR-H2": "VIYSDGRRTFYGDNVK", "CDR-H3": "GRAAGTFDS", "log10 Kd (nM) by replicate": "1.85 / 1.97 / 2.02", "signal with controls": "4 of 9 (3.95)"}

For reference, the parent read 0.65 as the reference entry and 4.11 (one replicate of three) as a member of this library.
Background: pairings of library AAYL49 with three empty control strains gave a value in 15% of cases (median 4.06, 5th percentile 2.83). Values in that range, when seen in few replicates, are hard to tell from nonspecific mating. The control count says in how many pairings with the empty strains this scFv gave a signal, with their mean in brackets.